Measured affinities in a library of Ab-14 light chain variants

The measurements come from Li et al. 2023 (doi:10.1038/s41467-023-39022-2) through the FLAb antibody collection.

Target: peptide PDVDLGDISGINAS, taken from heptad repeat 2 (HR2) of SARS-CoV-2 spike.

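The starting antibody came from a phage panning campaign against this peptide. This is the validation round: designs drawn from the data on random variants, tested in the same kind of assay. Group labels follow the data file (Ctrl: baseline library sampled from a position-specific scoring matrix, with some repeated check sequences; En: ensemble of fine-tuned language models; GP: Gaussian process model; HC: hill climbing; Gen: genetic algorithm; Gibbs: Gibbs sampling; a sequence that several methods proposed may carry one label only). AlphaSeq pools MATa yeast showing the antibodies with MATalpha yeast showing the peptide. Mating (16 h, 30 °C) was followed by selection of diploids and sequencing of their barcodes. A regression on co-assayed BCL2-family reference pairs converts the normalised counts of each replicate to an apparent Kd. There are six technical replicates.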

Parent: Ab-14, a human scFv built as VH, three GGGGS repeats, VL. Only the CDRs of the light chain vary.
VH: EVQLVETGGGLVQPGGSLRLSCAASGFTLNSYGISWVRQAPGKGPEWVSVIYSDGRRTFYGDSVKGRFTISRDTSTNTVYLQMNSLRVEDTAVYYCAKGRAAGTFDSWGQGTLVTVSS
VL: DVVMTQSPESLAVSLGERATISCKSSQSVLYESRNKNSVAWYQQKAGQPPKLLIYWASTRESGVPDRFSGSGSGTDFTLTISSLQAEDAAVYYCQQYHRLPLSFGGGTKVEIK

Variants are written as CDR1, CDR2 and CDR3 of the light chain (limits as in the source). Parent: KSSQSVLYESRNKNSVA, WASTRES, QQYHRLPLS.
The read-out is the apparent dissociation constant on a log10 scale (nM): the lower, the stronger.
The mean shown is taken over the replicates in which the pair was detected.

{"CDR-L1": "KLSQSTLYESRNKNSVA", "CDR-L2": "DASQRES", "CDR-L3": "QQYHRLPLS", "group": "GP_Gen", "log10 Kd (nM), mean": "0.05", "seen in": "6/6", "control signals": "0/18"}
{"CDR-L1": "KIQDNLGTLMEQINSIA", "CDR-L2": "NSEEIVQ", "CDR-L3": "QSYFRLPLS", "group": "En_Gibbs", "log10 Kd (nM), mean": "1.42", "seen in": "4/6", "control signals": "0/18"}
{"CDR-L1": "KASQSVLGEQRNKNSVA", "CDR-L2": "DISTRES", "CDR-L3": "QQYHRLPLS", "group": "GP_HC", "log10 Kd (nM), mean": "0.03", "seen in": "6/6", "control signals": "0/18"}
{"CDR-L1": "TISQSTYWENRNKNSVA", "CDR-L2": "QTSTREE", "CDR-L3": "QDYDRLPLS", "group": "En_HC", "log10 Kd (nM), mean": "2.02", "seen in": "6/6", "control signals": "3/18"}
{"CDR-L1": "QLLMATMQETYQKNSVA", "CDR-L2": "HAETRED", "CDR-L3": "QSYHRLPLS", "group": "En_HC", "log10 Kd (nM), mean": "0.55", "seen in": "6/6", "control signals": "0/18"}
{"CDR-L1": "KVSQSVEYESRNKNSVA", "CDR-L2": "NASTRES", "CDR-L3": "QQYHRLPLS", "group": "GP_Gen", "log10 Kd (nM), mean": "0.59", "seen in": "5/6", "control signals": "0/18"}
{"CDR-L1": "KLQQSRLYEDRNANNVA", "CDR-L2": "NASQRES", "CDR-L3": "QQYHRLPLS", "group": "GP_Gibbs", "log10 Kd (nM), mean": "-0.42", "seen in": "6/6", "control signals": "0/18"}
{"CDR-L1": "KVSQSKLGESRNKNSVA", "CDR-L2": "NASTREK", "CDR-L3": "QQYHRLPLS", "group": "GP_Gibbs", "log10 Kd (nM), mean": "0.10", "seen in": "6/6", "control signals": "0/18"}
{"CDR-L1": "KLQQSELYESRNCNSVA", "CDR-L2": "NASTRES", "CDR-L3": "QQYHRLPLS", "group": "GP_Gen", "log10 Kd (nM), mean": "0.03", "seen in": "6/6", "control signals": "2/18"}
{"CDR-L1": "KSSQSVLYESRNKNSVA", "CDR-L2": "EASTRES", "CDR-L3": "QQKMRLPLS", "group": "Ctrl", "log10 Kd (nM), mean": "0.87", "seen in": "6/6", "control signals": "0/18"}
{"CDR-L1": "KISGSYLGLSRNWNAVA", "CDR-L2": "HASQREQ", "CDR-L3": "QQYHRLPLS", "group": "GP_Gibbs", "log10 Kd (nM), mean": "0.69", "seen in": "6/6", "control signals": "1/18"}
{"CDR-L1": "HIDQQTSYDNGRERAIA", "CDR-L2": "DVTIRDW", "CDR-L3": "QQYARLPLL", "group": "En_Gibbs", "log10 Kd (nM), mean": "0.40", "seen in": "6/6", "control signals": "0/18"}
{"CDR-L1": "KLSMITGHLSTAKNNVA", "CDR-L2": "EMVTREN", "CDR-L3": "QQYNRLPLS", "group": "En_Gen", "log10 Kd (nM), mean": "1.28", "seen in": "6/6", "control signals": "0/18"}
{"CDR-L1": "SLMQVGGYESNAKNSIA", "CDR-L2": "DLRTRES", "CDR-L3": "QQYHRLPLS", "group": "En_HC", "log10 Kd (nM), mean": "0.37", "seen in": "6/6", "control signals": "0/18"}
{"CDR-L1": "KSSQSVTYESRNKNSVA", "CDR-L2": "QASTRES", "CDR-L3": "QQYHRLPLS", "group": "Ctrl", "log10 Kd (nM), mean": "0.52", "seen in": "6/6", "control signals": "0/18"}
{"CDR-L1": "KSSISHLYESRNKNSVA", "CDR-L2": "EASTRES", "CDR-L3": "QQYHRLPLM", "group": "GP_HC", "log10 Kd (nM), mean": "-0.11", "seen in": "6/6", "control signals": "0/18"}
{"CDR-L1": "KIGQLTTYHSQNGNAIA", "CDR-L2": "QTSTREE", "CDR-L3": "QQYHRLPLS", "group": "En_HC", "log10 Kd (nM), mean": "0.16", "seen in": "6/6", "control signals": "0/18"}
{"CDR-L1": "MVNGIMDHLSKQTNNVA", "CDR-L2": "EMTTREE", "CDR-L3": "QQYDRLPLS", "group": "En_Gen", "log10 Kd (nM), mean": "0.59", "seen in": "6/6", "control signals": "0/18"}
{"CDR-L1": "KLQQQSLYGSRNKNSVA", "CDR-L2": "EASTREQ", "CDR-L3": "QQYHRLPLS", "group": "GP_Gibbs", "log10 Kd (nM), mean": "0.20", "seen in": "6/6", "control signals": "1/18"}
{"CDR-L1": "KIGMTLNQLMHKKNNVA", "CDR-L2": "DLVTREN", "CDR-L3": "QQYHRLPLS", "group": "En_Gen", "log10 Kd (nM), mean": "0.52", "seen in": "6/6", "control signals": "0/18"}
{"CDR-L1": "KMSQSQLYEWRNKNSVA", "CDR-L2": "NASYRES", "CDR-L3": "QQYHRLPLS", "group": "GP_Gibbs", "log10 Kd (nM), mean": "0.49", "seen in": "6/6", "control signals": "0/18"}
{"CDR-L1": "KSSQAVLYESTNQNSVA", "CDR-L2": "WASTRES", "CDR-L3": "QQYHRLPLS", "group": "Ctrl", "log10 Kd (nM), mean": "1.69", "seen in": "6/6", "control signals": "1/18"}
{"CDR-L1": "KVSEFMKGLMMRKDSIA", "CDR-L2": "DNNTRSS", "CDR-L3": "QQYDRLPLS", "group": "En_Gen", "log10 Kd (nM), mean": "1.19", "seen in": "6/6", "control signals": "0/18"}
{"CDR-L1": "HSSISVEYESRNKNSVA", "CDR-L2": "NASSREV", "CDR-L3": "QQYHRLPLS", "group": "GP_HC", "log10 Kd (nM), mean": "0.61", "seen in": "6/6", "control signals": "0/18"}
{"CDR-L1": "VFQQQWDGHTDTNNSVA", "CDR-L2": "NVDEKME", "CDR-L3": "QQYYRLPLL", "group": "En_Gibbs", "log10 Kd (nM), mean": "1.17", "seen in": "6/6", "control signals": "1/18"}

The closing 2 entries, repeated:

CDR-L1	CDR-L2	CDR-L3	group	log10 Kd (nM), mean	seen in	control signals
HSSISVEYESRNKNSVA	NASSREV	QQYHRLPLS	GP_HC	0.61	6/6	0/18
VFQQQWDGHTDTNNSVA	NVDEKME	QQYYRLPLL	En_Gibbs	1.17	6/6	1/18

Empty control strains, which show no peptide, gave a signal in 4% of pairings with all light chain designs; the median was 2.64 and 95% of these signals were weaker than 1.59. No background was subtracted. Also given: how often the same scFv was detected with the empty control strains.
The authors averaged sequences with at least three values out of six and counted those with two or fewer as poor binders.
The range of this assay differs from that of the first round, and the authors advise against merging the two.